{"source": "patent US8740762B2", "about": "“Specific inhibition of cPLA2 enhances the efficacy of radiotherapy” (Vanderbilt University, priority 2007, dated 2014)", "key": {"PLA2": {"test_system": "PLA2", "assay": "PLA2 enzymatic activity in irradiated HUVEC pretreated with PLA2 inhibitors", "assay_type": "cell-based, human", "settings": "1 μM inhibitor 30 minutes prior to 3 Gy, harvested 3 minutes after beginning of irradiation"}, "HUVEC [1]": {"test_system": "HUVEC", "assay": "Endothelial cell migration through the filter", "settings": "24 hours", "description": "FIG. 8A is a bar graph showing the results of endothelial cell migration assays. Fresh complete HUVEC media was added to the bottom chamber of 6 well plates with 8.0 micron inserts, while HUVEC suspension was added to the top chamber. Both chambers were treated with EtOH or cPLA2 inhibitors (1 μM AACOCF3 and 1 μM MAFP) for 30 minutes and irradiated with 3 Gy. 24 hours later, cells in the insert chambers were stained with DAPI and counted (5 HPF per sample).\n(§1) The role of cPLA2 in HUVEC migration was investigating using two approaches: endothelial cell migration through the filter and endothelial cell gash closure (see FIGS. 8A-8C). […] However, inhibition of cPLA2 with either AACOCF3 or MAFP followed by irradiation maximally abolished HUVEC migration in both assays leaving only 40% of cells capable of migration (see FIGS. 8A-8C)."}, "HUVEC [2]": {"test_system": "HUVEC", "assay": "Endothelial cell gash closure assay", "settings": "24 hours", "description": "FIGS. 8B and 8C depict the results of endothelial cell gash closure assays. HUVEC were grown to 70-80% confluency. Four parallel wounds were created on each plate using a 200 ml pipette tip, and cells were treated with EtOH or cPLA2 inhibitors (1 μM AACOCF3 and 1 μM MAFP) for 30 minutes and irradiated with 3 Gy. 24 hours later, cells were stained with 1% methylene blue and counted. Shown are micrographs of stained cells (FIG. 8B) and a bar graph of the corresponding average percentage of migrated cells with SEM from six experiments (FIG. 8C). *: P<0.05.\nas §1"}, "LLC tumors": {"test_system": "LLC tumors", "assay": "Tumor size by Power Doppler sonography", "settings": "for fold-change in tumor size comparing first and last measurements: day 6 vs day 17, control 8.5-fold, 3 Gy 10-fold", "description": "FIGS. 9E and 9F are bar graphs showing fold change in tumor size in mice with LLC tumors and treated intraperitoneally (IP) with 70% EtOH or cPLA2 inhibitors (FIG. 9E, 10 mg/kg AACOCF3 or FIG. 9F, 2.0 mg/kg MAFP). Tumors were irradiated with 3 Gy 30 minutes after IP administration. Treatment was repeated daily for 5 consecutive days. Sizes of the tumors were measured using Power Doppler sonography on day 6 after tumor inoculation (first day of treatment) and on day 14 (FIG. 9E) or 17 (FIG. 9F). Shown are bar graphs of average fold-change in tumor size. All graphs are with SEM from at least three animals per group. *: P<0.05.\nPower Doppler sonography was also used to estimate effects of cPLA2 inhibition on tumor size. The same mouse tumor model and irradiation with the addition of a second cPLA2 inhibitor, MAFP, was studied. Tumor size was measured over the course of the experiment. Treatment with radiation alone or inhibitors alone (10 mg/kg AACOCF3 or 2 mg/kg for MAFP) led to a persistent decrease in the average tumor size which was not statistically significant. […] This difference was especially pronounced when fold-changes in tumor size comparing first and last measurements were calculated (see FIG. 9E: 2-fold for AACOCF3+3 Gy vs. 10-fold for control and 10-fold for 3 Gy; FIG. 9F: 4-fold for MAFP+3 Gy vs. 8.5-fold for control and 10-fold for 3 Gy)."}, "[3]": {"settings": "1 μM inhibitor followed by 3 Gy irradiation"}}, "data": [{"smiles": "CCCCC/C=C\\C/C=C\\C/C=C\\C/C=C\\CCCCOP(=O)(F)OC", "note": "(centres unmarked)", "values": [{"measurement": "radiation-induced activation of PLA2", "setting": "PLA2", "result": "completely abrogated"}, {"measurement": "decrease in HUVEC migration through the filter", "setting": "HUVEC [1]; 1 μM inhibitor alone", "result": 20, "unit": "%"}, {"measurement": "cells capable of migration (through the filter)", "setting": "HUVEC [1]; [3]", "result": 40, "unit": "%"}, {"measurement": "decrease in gash closure (HUVEC migration)", "setting": "HUVEC [2]; 1 μM inhibitor alone", "result": 50, "unit": "%"}, {"measurement": "cells capable of migration (gash closure)", "setting": "HUVEC [2]; [3]", "result": 40, "unit": "%"}, {"measurement": "fold-change in tumor size comparing first and last measurements", "setting": "LLC tumors; 2 mg/kg IP + 3 Gy daily for 5 days", "result": 4, "unit": "fold"}, {"measurement": "fold-change in tumor size comparing first and last measurements", "setting": "LLC tumors; 2 mg/kg IP alone daily for 5 days", "result": 7, "unit": "fold"}, {"measurement": "decrease in the average tumor size", "setting": "LLC tumors; inhibitors alone, 10 mg/kg AACOCF3 or 2 mg/kg for MAFP, IP daily for 5 days", "result": "not statistically significant"}]}]}
